Amino acid sequences for entries named in this document (tags omitted). Residues count along the entry.
UniProt P03372, 311-547: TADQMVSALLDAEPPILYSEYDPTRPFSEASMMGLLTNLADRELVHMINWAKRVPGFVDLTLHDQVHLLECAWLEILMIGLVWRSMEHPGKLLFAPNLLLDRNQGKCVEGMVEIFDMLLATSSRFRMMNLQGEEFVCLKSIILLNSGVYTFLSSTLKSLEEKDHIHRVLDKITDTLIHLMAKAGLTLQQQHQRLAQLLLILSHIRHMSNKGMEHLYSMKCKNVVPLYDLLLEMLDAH

In US10130617B2, “Chemical compounds” (AstraZeneca AB, priority 2013, dated 2018):

Target: recombinant human Estrogen Receptor alpha ligand binding domain (ER alpha-LBD (GST)) (Homo sapiens (Human), UniProt P03372)
Assay: ERα Binding Assay (LanthaScreen TR-FRET competition)
Settings: single experiment or average of repeats

Compound: C[C@H](CF)CN1[C@H](c2ccc(/C=C/C(=O)O)cc2)c2[nH]c3ccccc3c2C[C@H]1C [Example 4, (E)-3-(4-((1R,3R)-2-((S)-3-fluoro-2-methylpropyl)-3-methyl-2,3,4,9-tetrahydro-1H-pyrido[3,4-b]indol-1-yl)phenyl)acrylic acid]
- IC50: 1.6 nM
